# Permeability data for macrocyclic peptides

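The data file gives no further conditions (lipid, pH, time, direction or concentration), and values from different papers need not be comparable. Other peptides of the study may be missing here. Entries at the database's floor value (log10 P of -10) are not listed.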

PAMPA measures passive passage through an artificial lipid membrane.
Values are log10 P with P in cm/s, so -5 is more permeable than -7.

structure (SMILES)	PAMPA (log10 cm/s)
CC(C)C[C@@H]1C(=O)N2CCC[C@H]2C(=O)N(C)[C@H](CC(C)C)C(=O)N[C@@H](Cc2ccccc2)C(=O)N2CCC[C@H]2C(=O)N(C)[C@@H](C)C(=O)N[C@H](CC(C)C)C(=O)N1C	-5.54
CC(C)C[C@H]1C(=O)N(Cc2ccccc2)CC(=O)N2CCC[C@@H]2C(=O)N(C)[C@@H](CC(C)C)C(=O)N[C@@H](Cc2ccccc2)C(=O)N2CCC[C@@H]2C(=O)N[C@@H](C)C(=O)N1C	-5.60
CC(C)C[C@@H]1NC(=O)[C@@H](CC(C)C)NC(=O)[C@@H](C)NC(=O)[C@H]2CCCN2C(=O)[C@H](Cc2ccccc2)NC(=O)[C@@H](CC(C)C)NC(=O)[C@H]2CCCN2C1=O	-6.07
CCCN1CC(=O)N(C)[C@@H](CC(C)C)C(=O)N(C)[C@H](CC(C)C)C(=O)N2CCC[C@H]2C(=O)N[C@@H](CC(C)C)C(=O)N[C@@H](Cc2ccccc2)C1=O	-4.71
CC(C)C[C@@H]1NC(=O)[C@H](C)N(C)C(=O)[C@H]2CCCN2C(=O)[C@H](Cc2ccccc2)NC(=O)[C@@H](CC(C)C)N(C)C(=O)[C@@H]2CCCN2C(=O)[C@@H](CC(C)C)N(C)C1=O	-5.11
CC(C)C[C@@H]1C(=O)N[C@@H](Cc2ccccc2)C(=O)N2CCC[C@@H]2C(=O)N[C@H](C)C(=O)N(C)[C@H](CC(C)C)C(=O)N(C)[C@@H](CC(C)C)C(=O)N2CCC[C@@H]2C(=O)N1C	-5.01
CC(C)C[C@@H]1C(=O)N[C@@H](Cc2ccccc2)C(=O)N2CCC[C@H]2C(=O)N(C)[C@@H](C)C(=O)N(C)[C@H](CC(C)C)C(=O)N(Cc2ccccc2)CC(=O)N2CCC[C@@H]2C(=O)N1C	-5.47
CC(C)C[C@H]1NC(=O)C[C@H](Cc2ccccc2)NC(=O)[C@H]2CCCN2C(=O)[C@H](Cc2ccccc2)NC(=O)CN(Cc2ccccc2)C(=O)[C@@H]2CCCN2C(=O)[C@@H](CC(C)C)NC1=O	-5.76
CC(C)C[C@@H]1C(=O)N(Cc2ccccc2)CC(=O)N2CCC[C@@H]2C(=O)N(C)[C@@H](CC(C)C)C(=O)N[C@@H](Cc2ccccc2)C(=O)N[C@H](C)C(=O)N1C	-5.00
CC(C)C[C@@H]1NC(=O)[C@@H](C)NC(=O)[C@H](Cc2ccccc2)NC(=O)[C@@H](CC(C)C)N(C)C(=O)[C@H]2CCCN2C(=O)[C@H](CC(C)C)NC1=O	-5.20
CC(C)C[C@@H]1NC(=O)[C@H]2CCCN2C(=O)[C@@H](CC(C)C)NC(=O)[C@H](CC(C)C)N(C)C(=O)[C@@H](C)NC(=O)[C@H](Cc2ccccc2)NC1=O	-6.61
CC(C)C[C@@H]1C(=O)N[C@@H](Cc2ccccc2)C(=O)N2CCC[C@H]2C(=O)N[C@@H](C)C(=O)N(C)[C@@H](CC(C)C)C(=O)N[C@H](CC(C)C)C(=O)N2CCC[C@H]2C(=O)N1C	-5.06
CC(C)C[C@@H]1C(=O)N(Cc2ccccc2)CC(=O)N2CCC[C@H]2C(=O)N(Cc2ccccc2)CC(=O)N[C@@H](Cc2ccccc2)C(=O)N(C)[C@H](C)C(=O)N1C	-5.42
CC(C)C[C@H]1NC(=O)[C@H](CC(C)C)N(C)C(=O)[C@@H](C)NC(=O)[C@H]2CCCN2C(=O)[C@H](Cc2ccccc2)NC(=O)[C@H](CC(C)C)N(C)C(=O)[C@@H]2CCCN2C1=O	-5.91
CC(C)C[C@@H]1NC(=O)[C@H](C)NC(=O)[C@@H]2CCCN2C(=O)[C@H](Cc2ccccc2)NC(=O)[C@H](CC(C)C)NC(=O)[C@@H]2CCCN2C(=O)[C@H](CC(C)C)NC1=O	-7.26

The 2 lowest values of PAMPA among the entries above:

structure (SMILES)	PAMPA (log10 cm/s)
CC(C)C[C@@H]1NC(=O)[C@H](C)NC(=O)[C@@H]2CCCN2C(=O)[C@H](Cc2ccccc2)NC(=O)[C@H](CC(C)C)NC(=O)[C@@H]2CCCN2C(=O)[C@H](CC(C)C)NC1=O	-7.26
CC(C)C[C@@H]1NC(=O)[C@H]2CCCN2C(=O)[C@@H](CC(C)C)NC(=O)[C@H](CC(C)C)N(C)C(=O)[C@@H](C)NC(=O)[C@H](Cc2ccccc2)NC1=O	-6.61

Values of Townsend et al. 2020, doi:10.26434/chemrxiv.13335941.v1, as listed in CycPeptMPDB.